Here are results for 1 substance from US20240043489A1, “Cytokine Prodrugs Comprising a Cleavable Linker” (Trutino Biosciences Inc., priority 2020, published 2024).

The test system of this test is MC38 tumor. Nature of the test: Intra-tumoral injection in syngeneic MC38 colorectal cancer model. Format: in vivo, mice. The following applies: daily intra-tumoral injection, 10 injections, Construct A 70ug/day, r hIL2 5 ug/day.

“r hIL2: recombinant human IL-2, comparison arm dosed at 5 ug/day intra-tumorally [reference compound]”: the anti-tumor activity result is on record as “no tumor regression”. In addition, the anti-tumor activity entry (listed as human IL-2) was “adversely affected tumor control relative to vehicle”.
